The values that follow come from US7482339B2, “2-Naphthylimino-1,3-thiazine derivative” (Shionogi and Co., Ltd., priority 2003, dated 2009).

Chains of the proteins cited; added tags and fusions are not shown.
UniProt P21554, whole entry: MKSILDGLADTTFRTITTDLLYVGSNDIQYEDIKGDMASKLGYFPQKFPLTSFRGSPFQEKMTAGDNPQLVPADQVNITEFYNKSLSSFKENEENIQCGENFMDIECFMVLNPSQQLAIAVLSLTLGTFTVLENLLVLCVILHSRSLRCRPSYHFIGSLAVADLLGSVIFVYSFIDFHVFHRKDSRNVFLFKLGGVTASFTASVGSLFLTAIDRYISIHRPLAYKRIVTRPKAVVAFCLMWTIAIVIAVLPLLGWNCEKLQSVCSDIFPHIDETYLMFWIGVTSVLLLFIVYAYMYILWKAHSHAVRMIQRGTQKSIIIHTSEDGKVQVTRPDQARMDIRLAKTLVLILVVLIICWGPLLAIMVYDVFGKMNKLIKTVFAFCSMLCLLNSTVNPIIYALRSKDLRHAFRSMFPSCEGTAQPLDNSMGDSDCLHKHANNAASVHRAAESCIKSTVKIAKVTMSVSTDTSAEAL
UniProt P34972, whole entry: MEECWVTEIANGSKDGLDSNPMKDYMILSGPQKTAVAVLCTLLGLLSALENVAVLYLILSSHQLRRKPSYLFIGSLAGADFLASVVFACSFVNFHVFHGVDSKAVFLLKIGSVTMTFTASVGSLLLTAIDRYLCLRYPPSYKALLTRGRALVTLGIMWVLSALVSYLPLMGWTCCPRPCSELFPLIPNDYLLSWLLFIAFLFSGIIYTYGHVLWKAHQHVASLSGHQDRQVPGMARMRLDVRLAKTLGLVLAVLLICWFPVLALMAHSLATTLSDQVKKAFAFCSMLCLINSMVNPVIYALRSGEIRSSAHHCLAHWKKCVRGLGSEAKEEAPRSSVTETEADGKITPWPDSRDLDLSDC

Each structure is given as a SMILES string.

The target in test [1] is T1, human CB1R (Homo sapiens, UniProt P21554). Nature of the test: Human CB receptor binding inhibition ([3H]CP55940), CB1R. The following applies: read-out: CB receptor binding inhibition Ki CB1; membranes of CB1R-expressing CHO cells, 0.5 nM [3H]CP55940, 2 hr at 25° C.
Test [2] deals with T2, human CB2R (Homo sapiens, UniProt P34972). Nature of the test: Human CB receptor binding inhibition ([3H]CP55940), CB2R. The note with it: read-out: CB receptor binding inhibition Ki CB2; membranes of CB2R-expressing CHO cells, 0.5 nM [3H]CP55940, 2 hr at 25° C. On the procedure: The crude membrane fractions were then prepared from the CB1R or CB2R-expressing CHO cells. Receptor binding assay was performed by incubating the membranes with each test compound and 38,000 dpm [^3H]CP55940 (at a final concentration of 0.5 nM: PerkinElmer Life & Analytical Sciences) in the assay buffer (50 mM Tris-HCl, […], 3 mM MgCl2, pH 7.4) containing 0.5% bovine serum albumin (BSA) for 2 hr at 25° C. The incubation mixture was filtered through 1% polyethylenimine (PEI)-treated GF/C glass filter and washed with 50 mM Tris-HCl (pH 7.4) containing 0.1% BSA. The radioactivity was then counted with a liquid scintillation counter. Nonspecific binding was determined in the presence of 10 μM WIN55212-2 (a CBR agonist described in the patent U.S. Pat. No. 508,122, Sigma), and the specific binding was calculated by subtracting the nonspecific binding from the total binding. The IC50 value for each test compound was determined as the concentration at which 50 % of the specific binding was inhibited. As a consequence of these studies, the Ki values of each test compound were determined from the IC50 value and the Kd vale of [^3H]CP55940.

Test [3] concerns the target T1, human CB1R. Nature of the test: CBR-mediated suppression of forskolin-stimulated cAMP synthesis, CHO cells expressing CB1R. The following applies: read-out: Inhibition of cAMP synthesis IC50 CB1, 4 μM forskolin. On the procedure:
(§1) The CHO cells expressing human CB1R or CB2R were incubated with test compounds for 15 min. After the incubation, 4 μM forskolin (Sigma) was added and the cells were incubated for 20 min. The reaction was stopped by the addition of 1N HCl and the amount of cAMP in the cell supernatant was measured using an Cyclic AMP kit (CIS bio international) according to the manufacture's protocol. The cAMP amount increased by forskolin compared to that in the absence of forskolin was defined as 100%, and the IC50 value of each test compound was determined as the concentration at which 50% of the forskolin-stimulated cAMP synthesis was inhibited.

Test [4] deals with T2, human CB2R. Nature of the test: CBR-mediated suppression of forskolin-stimulated cAMP synthesis, CHO cells expressing CB2R. The following applies: read-out: Inhibition of cAMP synthesis IC50 CB2, 4 μM forskolin. On the procedure:
as §1

Test [5] concerns formalin-induced hyperalgesia in ICR mice. Briefly: Inhibitory effect against formalin-induced hyperalgesia in ICR mice. The following applies: male ICR mice, oral administration 2 h prior to formalin; for Inhibitory effect against formalin-induced hyperalgesia (ED50) Second phase: 10 to 30 min after formalin injection; for Inhibitory effect against formalin-induced hyperalgesia (ED50) First phase: first 5 minutes after formalin injection. How it is done: The inhibitory effects of the compounds of the present invention against formalin-induced hyperalgesia were examined in male ICR mice (5 W). Test compounds were dissolved in sesami oil and applied orally 2 h prior to the subcutaneous formalin injection (2% 20 μL) into the right hind paw. In this experiment, observation period was set to 30 min and divided into two parts, the first 5 minutes immediately after the formalin injection (first phase) and 10 to 30 min minutes after the formalin injection (second phase). The strength for pain sensation was evaluated by the total time for licking and biting behavior. The inhibitory effect of the test compounds on such behavior was evaluated and the ED50 value was calculated.

For orientation: Ki means the equilibrium dissociation constant of an inhibitor or competing ligand from its target. One may read the IC50 as the concentration that inhibits the measured activity by half. As for `CSC(=O)N1CC(C(C)C)(C(C)C)CSC1=Nc1cccc2c1CCC2`, the Ki at human CB1R [1] was determined as 23 nM; on human CB2R [2], 2.2 nM. Also, the IC50 on human CB1R [3] is 25 nM.
On to `CSC(=O)N1CC(C(C)C)(C(C)C)CSC1=Nc1cccc2c1CCCC2`, for which the IC50 came out at 2.7 nM on human CB2R [4] and 4 nM at human CB1R [3]. For the same compound, the values for the inhibition constant Ki at human CB1R [1] and at human CB2R [2] were 16 nM and 1.6 nM, respectively. The “Inhibitory effect against formalin-induced hyperalgesia (ED50) Second phase” value in test [5] was found to be 3.1 mg/kg. In test [5], the “Inhibitory effect against formalin-induced hyperalgesia (ED50) First phase” value is recorded as 5.2 mg/kg.
Consider `CSC(=O)N1CC2(CCCCC2)CSC1=Nc1cccc2c1OCCO2`, for which the Ki on human CB1R [1] came out at 21 nM; at human CB2R [2], 0.7 nM.
Regarding `CSC(=S)N1CC2(CCCCC2)CSC1=Nc1cccc2c1CCCC2`, the results for the IC50 on human CB2R [4] and on human CB1R [3] were 0.2 nM and 3.2 nM, respectively. Also, the Ki at human CB2R [2] was 0.2 nM. Further, in test [5], the “Inhibitory effect against formalin-induced hyperalgesia (ED50) Second phase” value is 4.0 mg/kg. Also, the “Inhibitory effect against formalin-induced hyperalgesia (ED50) First phase” value in test [5] amounted to 2.5 mg/kg.
On to `CSC(=S)N1CC2(CCCCC2)CSC1=Nc1cccc2c1OCCO2`, for which the Ki at human CB1R [1] was determined as 30 nM; on human CB2R [2] it was 1 nM.
Regarding `CSC(=S)N1CC(C(C)C)(C(C)C)CSC1=Nc1cccc2c1CCCC2`, the IC50 at human CB2R [4] turned out to be 0.2 nM.
